From US10385056B2, “4-substituted pyrrolo[2,3-d]pyrimidine compound and use thereof” (JIANGSU CAREFREE PHARMACEUTICAL CO., LTD, priority 2014, dated 2019)

Sequences of proteins named here, by UniProt entry; tags and fusion partners are left off.
UniProt O60674, whole entry, species assumed: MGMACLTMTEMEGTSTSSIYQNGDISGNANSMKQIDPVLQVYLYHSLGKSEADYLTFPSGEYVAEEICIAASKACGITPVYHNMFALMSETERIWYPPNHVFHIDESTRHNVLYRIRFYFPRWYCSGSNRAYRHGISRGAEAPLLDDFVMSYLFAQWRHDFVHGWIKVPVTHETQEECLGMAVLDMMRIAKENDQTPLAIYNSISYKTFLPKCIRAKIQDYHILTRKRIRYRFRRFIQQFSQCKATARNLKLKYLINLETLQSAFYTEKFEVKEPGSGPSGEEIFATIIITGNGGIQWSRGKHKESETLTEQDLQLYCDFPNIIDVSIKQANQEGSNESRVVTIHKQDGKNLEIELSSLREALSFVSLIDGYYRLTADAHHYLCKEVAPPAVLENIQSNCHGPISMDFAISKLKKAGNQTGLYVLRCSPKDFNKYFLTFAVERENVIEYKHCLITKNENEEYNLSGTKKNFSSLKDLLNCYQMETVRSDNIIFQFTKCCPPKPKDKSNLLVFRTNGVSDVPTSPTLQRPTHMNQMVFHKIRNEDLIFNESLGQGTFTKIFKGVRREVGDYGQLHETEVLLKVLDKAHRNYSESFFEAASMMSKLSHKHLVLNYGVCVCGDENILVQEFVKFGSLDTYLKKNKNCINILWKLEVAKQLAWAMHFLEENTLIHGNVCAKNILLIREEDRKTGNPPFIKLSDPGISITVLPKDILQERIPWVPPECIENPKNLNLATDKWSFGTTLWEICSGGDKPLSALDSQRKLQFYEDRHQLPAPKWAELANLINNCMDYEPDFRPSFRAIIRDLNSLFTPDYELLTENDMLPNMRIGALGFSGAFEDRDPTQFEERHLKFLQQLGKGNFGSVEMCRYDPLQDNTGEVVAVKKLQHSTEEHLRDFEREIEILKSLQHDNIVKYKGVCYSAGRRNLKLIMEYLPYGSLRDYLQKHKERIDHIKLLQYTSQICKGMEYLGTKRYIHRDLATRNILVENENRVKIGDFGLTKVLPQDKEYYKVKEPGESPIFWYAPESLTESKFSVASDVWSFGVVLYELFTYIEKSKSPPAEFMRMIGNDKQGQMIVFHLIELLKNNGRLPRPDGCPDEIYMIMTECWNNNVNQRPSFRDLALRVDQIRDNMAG

Target: JAK2 (Homo sapiens, UniProt O60674)
Assay: Caliper Mobility Shift Assay, kinase inhibition
Type: biochemical

Question: How did the IC50 turn out when `CCS(=O)(=O)N1CC(CC#N)(n2cc(-c3ncnc4[nH]ccc34)cn2)C1` [Baricitinib, reference compound] was run?
Answer: The IC50 was 0.83 nM.
